What all share (assay type): cell-based
For assay [1], the target named is T1, Thyroid hormone receptor beta (Homo sapiens) (UniProt P10828).
T1 sequence (whole entry): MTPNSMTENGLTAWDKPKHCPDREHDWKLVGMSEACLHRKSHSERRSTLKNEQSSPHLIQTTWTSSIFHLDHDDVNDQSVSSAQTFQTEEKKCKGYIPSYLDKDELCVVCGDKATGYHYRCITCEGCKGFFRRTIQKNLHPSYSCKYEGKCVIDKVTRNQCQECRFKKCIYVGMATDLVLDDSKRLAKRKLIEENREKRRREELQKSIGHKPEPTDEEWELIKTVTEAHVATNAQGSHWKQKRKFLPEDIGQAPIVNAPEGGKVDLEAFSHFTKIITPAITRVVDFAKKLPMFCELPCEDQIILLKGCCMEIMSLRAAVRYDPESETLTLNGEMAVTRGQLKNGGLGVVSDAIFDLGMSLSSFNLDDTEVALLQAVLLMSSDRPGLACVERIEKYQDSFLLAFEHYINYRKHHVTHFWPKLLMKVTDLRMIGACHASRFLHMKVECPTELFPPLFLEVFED
Put plainly: Agonist activity at human GAL4-fused THRbeta LBD expressed in human HEK293T cells cotransfected with pFR-Luc and pRL-SV40 assessed as increase in luciferase activity at 30 uM incubated for 16 hrs by Dual-Glo luciferase assay relative to control.

By UniProt entry, the sequences of proteins in these tests, tags left out.
UniProt P10826, whole entry: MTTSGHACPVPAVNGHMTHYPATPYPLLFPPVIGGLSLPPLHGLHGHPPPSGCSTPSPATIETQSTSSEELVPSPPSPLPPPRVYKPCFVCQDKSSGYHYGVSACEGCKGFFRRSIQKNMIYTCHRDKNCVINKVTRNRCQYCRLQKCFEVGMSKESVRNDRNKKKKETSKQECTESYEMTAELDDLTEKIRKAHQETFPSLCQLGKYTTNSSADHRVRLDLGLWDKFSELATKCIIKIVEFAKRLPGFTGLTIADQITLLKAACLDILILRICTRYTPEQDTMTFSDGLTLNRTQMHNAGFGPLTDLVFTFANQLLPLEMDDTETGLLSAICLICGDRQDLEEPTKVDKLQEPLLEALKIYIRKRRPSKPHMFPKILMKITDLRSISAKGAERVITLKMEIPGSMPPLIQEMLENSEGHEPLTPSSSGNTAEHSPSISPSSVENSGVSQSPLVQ

Assay [2] deals with T2, Peroxisome proliferator-activated receptor delta (Homo sapiens) (UniProt Q03181).
T2 sequence (whole entry): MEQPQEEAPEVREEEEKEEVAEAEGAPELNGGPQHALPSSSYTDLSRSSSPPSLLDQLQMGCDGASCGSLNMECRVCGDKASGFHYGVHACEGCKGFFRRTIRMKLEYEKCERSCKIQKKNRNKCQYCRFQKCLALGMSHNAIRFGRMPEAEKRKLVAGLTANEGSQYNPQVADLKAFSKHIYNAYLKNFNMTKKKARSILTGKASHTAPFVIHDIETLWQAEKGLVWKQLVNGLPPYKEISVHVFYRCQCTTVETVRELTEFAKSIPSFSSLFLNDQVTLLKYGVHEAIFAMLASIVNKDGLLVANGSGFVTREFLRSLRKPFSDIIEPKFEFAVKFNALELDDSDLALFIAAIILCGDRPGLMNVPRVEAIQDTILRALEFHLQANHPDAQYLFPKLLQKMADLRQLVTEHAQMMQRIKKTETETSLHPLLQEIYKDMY
Put plainly: Agonist activity at human GAL4-fused PPARdelta LBD expressed in human HEK293T cells cotransfected with pFR-Luc and pRL-SV40 assessed as increase in luciferase activity at 30 uM incubated for 16 hrs by Dual-Glo luciferase assay relative to control.

The target of assay [3] is T3, Peroxisome proliferator-activated receptor alpha (Homo sapiens) (UniProt Q07869).
T3 sequence (whole entry): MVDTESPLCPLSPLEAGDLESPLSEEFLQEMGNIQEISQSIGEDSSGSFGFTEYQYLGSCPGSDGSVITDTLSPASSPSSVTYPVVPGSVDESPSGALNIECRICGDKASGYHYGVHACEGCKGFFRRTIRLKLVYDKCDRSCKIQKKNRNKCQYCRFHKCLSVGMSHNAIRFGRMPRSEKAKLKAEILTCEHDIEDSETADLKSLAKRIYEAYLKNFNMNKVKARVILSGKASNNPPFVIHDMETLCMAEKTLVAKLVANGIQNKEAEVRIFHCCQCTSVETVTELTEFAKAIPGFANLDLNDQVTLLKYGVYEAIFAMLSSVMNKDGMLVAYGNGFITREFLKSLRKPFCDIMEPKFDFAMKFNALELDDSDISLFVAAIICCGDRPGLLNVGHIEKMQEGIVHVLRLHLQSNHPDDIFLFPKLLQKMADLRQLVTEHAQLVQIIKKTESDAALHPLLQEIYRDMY
Put plainly: Agonist activity at human GAL4-fused PPARalpha LBD expressed in human HEK293T cells cotransfected with pFR-Luc and pRL-SV40 assessed as increase in luciferase activity at 30 uM incubated for 16 hrs by Dual-Glo luciferase assay relative to control.

The target of assay [4] is T4, Bile acid receptor (Homo sapiens) (UniProt Q96RI1).
T4 sequence (whole entry): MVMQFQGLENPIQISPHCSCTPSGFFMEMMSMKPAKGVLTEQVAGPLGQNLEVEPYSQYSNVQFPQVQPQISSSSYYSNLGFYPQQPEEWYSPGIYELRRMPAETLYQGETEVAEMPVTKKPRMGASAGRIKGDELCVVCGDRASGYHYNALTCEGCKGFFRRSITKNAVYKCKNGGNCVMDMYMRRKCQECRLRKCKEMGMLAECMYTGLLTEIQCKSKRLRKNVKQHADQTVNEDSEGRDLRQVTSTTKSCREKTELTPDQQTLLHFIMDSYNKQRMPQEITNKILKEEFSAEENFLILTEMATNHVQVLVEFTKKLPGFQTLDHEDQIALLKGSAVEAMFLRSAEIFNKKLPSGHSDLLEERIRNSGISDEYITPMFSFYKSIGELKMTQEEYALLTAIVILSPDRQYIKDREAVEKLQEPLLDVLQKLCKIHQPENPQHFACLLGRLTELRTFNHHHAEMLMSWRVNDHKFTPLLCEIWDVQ
Put plainly: Agonist activity at human GAL4-fused FXR LBD expressed in human HEK293T cells cotransfected with pFR-Luc and pRL-SV40 assessed as increase in luciferase activity at 30 uM incubated for 16 hrs by Dual-Glo luciferase assay relative to control.

Assay [5] has as its target T5, Vitamin D3 receptor (Homo sapiens) (UniProt P11473).
T5 sequence (whole entry): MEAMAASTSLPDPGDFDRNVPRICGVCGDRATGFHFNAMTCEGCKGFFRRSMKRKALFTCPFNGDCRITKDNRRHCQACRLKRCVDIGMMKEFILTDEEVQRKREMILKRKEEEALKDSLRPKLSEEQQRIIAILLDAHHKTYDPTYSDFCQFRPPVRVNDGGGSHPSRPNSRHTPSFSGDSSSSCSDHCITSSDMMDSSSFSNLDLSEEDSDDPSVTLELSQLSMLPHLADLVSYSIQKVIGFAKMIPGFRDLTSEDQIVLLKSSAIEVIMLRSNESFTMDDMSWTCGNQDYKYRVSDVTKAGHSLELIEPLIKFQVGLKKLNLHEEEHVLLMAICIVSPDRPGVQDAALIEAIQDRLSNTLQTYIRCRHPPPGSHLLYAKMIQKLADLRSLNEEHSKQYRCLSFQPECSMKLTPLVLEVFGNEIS
Description: Agonist activity at human GAL4-fused VDR LBD expressed in human HEK293T cells cotransfected with pFR-Luc and pRL-SV40 assessed as increase in luciferase activity at 30 uM incubated for 16 hrs by Dual-Glo luciferase assay relative to control.

Assay [6] concerns the target Retinoic acid receptor beta (Homo sapiens) (UniProt P10826). Description: Agonist activity at human GAL4-fused RARbeta LBD expressed in human HEK293T cells cotransfected with pFR-Luc and pRL-SV40 assessed as increase in luciferase activity at 30 uM incubated for 16 hrs by Dual-Glo luciferase assay relative to control.

`O=C(O)Cc1cccc(COc2cccc3c2CCC3)c1`: the Activity was 1% in assay [1]; 9% in assay [2]; 5% in assay [3]; 2% in assay [4]; 3% in assay [5]; 2% in assay [6].

For the compound `Cc1ccc(OCc2ccc(CCC(=O)O)c(F)c2)c2c1CCC2`, the Activity came out at 1% in assay [1]; 2% in assay [2]; 1% in assay [3]; 2% in assay [4]; 2% in assay [5]; 3% in assay [6].

The values above are taken from ChEMBL document CHEMBL5316269, “Rational Design of a New RXR Agonist Scaffold Enabling Single-Subtype Preference for RXRα, RXRβ, and RXRγ” (J Med Chem, 2023).
